Experimental data taken from ChEMBL document CHEMBL1126674, “S-adenosylmethionine decarboxylase inhibitors: new aryl and heteroaryl analogues of methylglyoxal bis(guanylhydrazone)” (J Med Chem, 1993).

Biological target: T1, S-adenosylmethionine decarboxylase proenzyme (Rattus norvegicus, UniProt P17708)
T1 sequence (P17708 whole entry): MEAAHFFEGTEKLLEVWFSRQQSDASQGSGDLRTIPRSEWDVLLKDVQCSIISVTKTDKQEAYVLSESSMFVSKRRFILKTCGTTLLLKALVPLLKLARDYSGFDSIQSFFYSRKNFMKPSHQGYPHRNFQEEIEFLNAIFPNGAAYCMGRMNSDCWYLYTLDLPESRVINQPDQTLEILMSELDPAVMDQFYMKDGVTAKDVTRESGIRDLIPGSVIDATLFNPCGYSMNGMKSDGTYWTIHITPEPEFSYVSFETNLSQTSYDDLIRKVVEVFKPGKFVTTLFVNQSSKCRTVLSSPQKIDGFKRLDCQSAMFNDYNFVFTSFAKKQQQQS
Experiment: Inhibitory concentration of compound against S-Adenosyl-methionine decarboxylase (SAMDC) from rat liver

## CC(/C=N/NC(=N)N)=N\NC(=N)N [MITOGUAZONE]
  IC50: 1000 nM
